Laboratory results: PubChem BioAssay (NCATS)
Values joined by “and” are separate entries in the source; they are usually repeats but may differ in a detail not shown here. Equal entries are not always repeated. This is a selection; strong and weak results do not stand in their true shares. Results filed as inconclusive are left out. For part of these data: Results with a measured potency or affinity are listed apart. Active and inactive are the calls of the source. Unless noted, the call rests on the fitted dose curve; in most records, active means well fitted curve in the direction sought with a large enough effect; inconclusive means small, poorly fitted or top-dose-only effect, or another doubt; inactive means no such curve, though single readings can be large; an effect the other way counts as inactive or inconclusive.

By UniProt entry, the sequences of proteins in these tests, tags left out. Where a name states a change or a piece, a line headed by the entry shows the natural chain unless it says otherwise.
UniProt P10275: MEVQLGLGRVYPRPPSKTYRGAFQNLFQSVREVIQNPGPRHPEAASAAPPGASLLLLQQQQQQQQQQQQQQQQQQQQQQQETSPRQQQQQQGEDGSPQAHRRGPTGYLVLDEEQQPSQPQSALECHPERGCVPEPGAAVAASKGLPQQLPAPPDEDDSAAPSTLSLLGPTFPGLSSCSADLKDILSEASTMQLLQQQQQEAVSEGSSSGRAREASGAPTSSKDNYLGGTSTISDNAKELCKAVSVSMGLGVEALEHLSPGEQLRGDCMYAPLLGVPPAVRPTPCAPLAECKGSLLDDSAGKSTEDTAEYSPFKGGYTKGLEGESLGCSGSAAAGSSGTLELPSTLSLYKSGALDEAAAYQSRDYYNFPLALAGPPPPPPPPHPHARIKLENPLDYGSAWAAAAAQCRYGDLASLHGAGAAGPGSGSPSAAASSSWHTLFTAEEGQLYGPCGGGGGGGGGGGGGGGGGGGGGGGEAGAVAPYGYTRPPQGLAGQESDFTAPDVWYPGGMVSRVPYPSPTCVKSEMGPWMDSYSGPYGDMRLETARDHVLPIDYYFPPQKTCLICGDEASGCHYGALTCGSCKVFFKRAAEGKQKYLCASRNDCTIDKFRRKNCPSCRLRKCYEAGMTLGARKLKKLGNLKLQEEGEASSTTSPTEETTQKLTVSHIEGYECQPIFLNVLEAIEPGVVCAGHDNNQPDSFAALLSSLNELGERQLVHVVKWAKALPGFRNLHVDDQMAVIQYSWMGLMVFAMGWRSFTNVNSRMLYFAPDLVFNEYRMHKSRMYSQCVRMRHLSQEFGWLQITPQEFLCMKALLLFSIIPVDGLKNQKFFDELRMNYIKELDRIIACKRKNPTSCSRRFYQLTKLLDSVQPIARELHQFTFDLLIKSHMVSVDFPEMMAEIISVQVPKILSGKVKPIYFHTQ
UniProt Q03181: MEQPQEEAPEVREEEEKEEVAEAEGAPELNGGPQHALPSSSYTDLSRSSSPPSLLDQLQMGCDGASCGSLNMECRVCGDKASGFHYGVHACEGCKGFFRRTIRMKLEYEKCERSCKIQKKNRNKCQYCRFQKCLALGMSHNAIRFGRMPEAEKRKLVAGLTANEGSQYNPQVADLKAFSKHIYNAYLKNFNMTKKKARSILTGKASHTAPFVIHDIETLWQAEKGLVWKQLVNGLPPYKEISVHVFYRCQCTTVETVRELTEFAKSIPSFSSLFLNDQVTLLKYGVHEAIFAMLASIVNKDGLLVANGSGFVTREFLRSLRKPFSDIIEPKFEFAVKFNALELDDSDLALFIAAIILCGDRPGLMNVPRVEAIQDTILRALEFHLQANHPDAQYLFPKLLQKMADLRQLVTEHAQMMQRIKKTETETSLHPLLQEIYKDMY
UniProt P19793: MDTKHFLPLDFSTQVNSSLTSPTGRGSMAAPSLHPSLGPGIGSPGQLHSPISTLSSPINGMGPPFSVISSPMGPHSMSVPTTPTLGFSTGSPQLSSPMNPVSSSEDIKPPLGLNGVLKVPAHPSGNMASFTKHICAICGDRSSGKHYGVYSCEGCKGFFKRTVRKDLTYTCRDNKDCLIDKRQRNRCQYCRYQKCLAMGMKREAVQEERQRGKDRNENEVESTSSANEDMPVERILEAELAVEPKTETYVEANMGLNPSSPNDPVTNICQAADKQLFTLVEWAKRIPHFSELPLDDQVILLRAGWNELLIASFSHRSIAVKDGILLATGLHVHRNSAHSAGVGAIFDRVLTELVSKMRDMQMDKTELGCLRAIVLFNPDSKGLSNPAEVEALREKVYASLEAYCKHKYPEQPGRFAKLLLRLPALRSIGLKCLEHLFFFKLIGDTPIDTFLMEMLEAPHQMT
UniProt P10828: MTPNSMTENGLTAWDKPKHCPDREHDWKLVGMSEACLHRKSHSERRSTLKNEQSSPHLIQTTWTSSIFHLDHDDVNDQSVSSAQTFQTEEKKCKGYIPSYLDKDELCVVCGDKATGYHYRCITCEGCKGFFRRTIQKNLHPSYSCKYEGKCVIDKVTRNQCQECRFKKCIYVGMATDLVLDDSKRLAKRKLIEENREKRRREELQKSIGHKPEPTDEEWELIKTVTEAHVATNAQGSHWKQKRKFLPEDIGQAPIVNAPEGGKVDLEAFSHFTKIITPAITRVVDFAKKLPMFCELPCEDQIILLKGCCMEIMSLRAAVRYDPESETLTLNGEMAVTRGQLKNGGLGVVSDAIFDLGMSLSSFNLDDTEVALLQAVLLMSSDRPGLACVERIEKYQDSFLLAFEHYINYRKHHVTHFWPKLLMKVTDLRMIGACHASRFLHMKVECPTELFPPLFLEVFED
UniProt Q12809: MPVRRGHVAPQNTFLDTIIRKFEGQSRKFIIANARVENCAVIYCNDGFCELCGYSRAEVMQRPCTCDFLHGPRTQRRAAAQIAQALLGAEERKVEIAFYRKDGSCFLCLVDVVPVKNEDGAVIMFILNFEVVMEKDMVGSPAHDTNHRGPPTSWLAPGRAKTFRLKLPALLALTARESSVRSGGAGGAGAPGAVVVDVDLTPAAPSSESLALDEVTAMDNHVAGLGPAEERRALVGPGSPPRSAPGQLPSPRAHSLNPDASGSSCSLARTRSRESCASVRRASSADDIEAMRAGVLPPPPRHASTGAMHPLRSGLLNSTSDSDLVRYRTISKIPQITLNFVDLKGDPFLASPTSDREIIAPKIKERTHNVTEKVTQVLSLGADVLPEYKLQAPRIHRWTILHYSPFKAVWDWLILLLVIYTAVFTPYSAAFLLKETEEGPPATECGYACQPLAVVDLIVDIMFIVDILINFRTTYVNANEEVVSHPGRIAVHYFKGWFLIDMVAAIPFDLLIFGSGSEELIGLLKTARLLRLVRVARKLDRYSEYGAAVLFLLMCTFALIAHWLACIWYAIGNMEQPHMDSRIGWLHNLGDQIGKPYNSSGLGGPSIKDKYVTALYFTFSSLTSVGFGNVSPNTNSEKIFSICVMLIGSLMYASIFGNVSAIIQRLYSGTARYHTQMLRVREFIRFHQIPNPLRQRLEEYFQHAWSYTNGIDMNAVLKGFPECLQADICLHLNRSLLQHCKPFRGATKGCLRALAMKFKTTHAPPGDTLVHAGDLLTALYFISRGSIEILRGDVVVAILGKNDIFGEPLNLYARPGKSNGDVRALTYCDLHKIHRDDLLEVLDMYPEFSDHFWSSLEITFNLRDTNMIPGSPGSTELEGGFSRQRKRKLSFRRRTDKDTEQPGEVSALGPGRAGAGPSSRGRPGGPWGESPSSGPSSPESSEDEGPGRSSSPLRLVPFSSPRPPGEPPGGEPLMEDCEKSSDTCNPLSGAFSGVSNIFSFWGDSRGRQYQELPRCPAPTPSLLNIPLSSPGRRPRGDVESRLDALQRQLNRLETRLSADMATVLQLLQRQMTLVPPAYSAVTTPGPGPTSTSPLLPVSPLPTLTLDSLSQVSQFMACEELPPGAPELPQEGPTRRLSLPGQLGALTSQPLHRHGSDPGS
UniProt P08659, whole entry, looked up: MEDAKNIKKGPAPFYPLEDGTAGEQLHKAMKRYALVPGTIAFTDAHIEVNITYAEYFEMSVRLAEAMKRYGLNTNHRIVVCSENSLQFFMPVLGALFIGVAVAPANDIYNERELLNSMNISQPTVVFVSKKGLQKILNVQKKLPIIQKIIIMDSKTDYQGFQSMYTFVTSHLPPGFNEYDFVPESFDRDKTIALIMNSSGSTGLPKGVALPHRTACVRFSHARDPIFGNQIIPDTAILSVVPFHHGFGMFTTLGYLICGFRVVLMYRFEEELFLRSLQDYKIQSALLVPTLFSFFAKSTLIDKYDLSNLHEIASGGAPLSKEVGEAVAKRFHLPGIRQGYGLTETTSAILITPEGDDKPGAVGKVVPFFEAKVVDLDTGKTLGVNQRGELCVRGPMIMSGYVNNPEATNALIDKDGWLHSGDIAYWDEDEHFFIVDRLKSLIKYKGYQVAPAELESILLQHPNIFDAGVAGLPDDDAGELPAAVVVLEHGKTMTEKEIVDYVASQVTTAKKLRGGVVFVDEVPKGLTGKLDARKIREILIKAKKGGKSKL
UniProt Q07869: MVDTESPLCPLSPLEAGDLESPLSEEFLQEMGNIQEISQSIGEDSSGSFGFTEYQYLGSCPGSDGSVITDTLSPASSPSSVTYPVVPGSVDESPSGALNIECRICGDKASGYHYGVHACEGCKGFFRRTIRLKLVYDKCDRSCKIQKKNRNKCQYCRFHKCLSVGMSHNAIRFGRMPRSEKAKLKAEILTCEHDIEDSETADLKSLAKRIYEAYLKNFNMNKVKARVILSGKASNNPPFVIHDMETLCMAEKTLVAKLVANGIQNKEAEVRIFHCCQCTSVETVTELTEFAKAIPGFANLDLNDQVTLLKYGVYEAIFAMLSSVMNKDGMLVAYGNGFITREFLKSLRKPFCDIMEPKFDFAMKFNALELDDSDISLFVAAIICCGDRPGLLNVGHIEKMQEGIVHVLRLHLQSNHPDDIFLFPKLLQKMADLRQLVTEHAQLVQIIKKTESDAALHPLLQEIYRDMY

Columns and labels:
[1] = Cell Viability - LYMP2-025 (AID 976); details: LYMP2-025 lymphoblastoid cell viability; at 92.2 µM (top of the series);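 further: plate controls were DMSO only for no effect and tetraoctylammonium bromide control for full effect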
In short: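 Luminescent ATP readout after 24 hr treatment of a human lymphoblastoid line (LYMP2-025, 2500 cells/well, 37 C). Reagent developed 30 min at room temperature; AC50 fitted with the Hill equation.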

[2] = Cell Viability - LYMP2-002 (AID 977); details: LYMP2-002 lymphoblastoid cell viability, qHTS; at 92.2 µM (top of the series);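 further: plate controls were DMSO only for no effect and 92 µM tetraoctylammonium bromide for full effect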
In short: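 Human lymphoblastoid cells (2500/well) in complete medium were preincubated 5 hr at 37 C, then exposed to compounds for 24 hr at 37 C. Intracellular ATP was read by CellTiter-Glo luminescence; AC50 came from Hill-equation concentration-response fits.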

[3] = Cell Viability - LYMP2-007 (AID 979); details: LYMP2-007 lymphoblastoid cell viability; at 92.2 µM (top of the series);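 further: cells exposed to compound for 24 h before reading; 0% = DMSO only and the negative end = 92 µM tetraoctylammonium bromide; nearly all actives have a fitted effect of over 60% in size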
[4] = Cell Viability - LYMP2-014 (AID 983); details: LYMP2-014 lymphoblastoid cells, viability qHTS; at 92.2 µM (top of the series);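 further: plate controls were DMSO only for no effect and 92 µM tetraoctylammonium bromide for full effect; nearly all actives have a fitted effect of over 50% in size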
In short: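 Quantitative HTS in lymphoblastoid cells: 24 hr compound exposure, then CellTiter-Glo ATP luminescence. Positive control was tetraoctylammonium bromide, 6.4pM to 92 uM.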

[5] = Cell Viability - LYMP2-016 (AID 984); details: LYMP2-016 lymphoblastoid cell viability, qHTS; at 92.2 µM (top of the series); further: on the % scale 0 is the no-effect control and ±100 the full control effect; nearly all actives have a fitted effect of over 55% in size
In short: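 Cytotoxicity was scored by luminescent ATP content (CellTiter-Glo) after 24 h compound exposure at 37 C of a human lymphoblastoid line at 2500 cells/well. Concentration-response data were fitted to the Hill equation for AC50.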

[6] = Cell Viability - LYMP2-026 (AID 989); details: LYMP2-026 lymphoblastoid cell viability, qHTS; at 92.2 µM (top of the series); further: on the % scale 0 is the no-effect control and ±100 the full control effect; nearly all actives have a fitted effect of over 50% in size
In short: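 Acute toxicity screen in complete culture medium, with 24 hr compound exposure at 37 C. Viability read as cellular ATP via luciferase reaction, with tetraoctylammonium bromide (6.4pM to 92 uM) as positive control.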

[7] = Cell Viability - LYMP1-002 - Assay at 24 hr (AID 993); details: LYMP1-002 lymphoblastoid cells viability; at 92.2 µM (top of the series); further: on the % scale 0 is the no-effect control and ±100 the full control effect
In short: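 Viability was judged from intracellular ATP using a luciferase read-out, following a 24-hour compound incubation at 37 C of lymphoblastoid cells seeded at 2500 per well. Concentration-response data were fitted to the Hill equation for AC50.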

[8] = Cell Viability - LYMP1-002 - Assay at 40 hr (AID 994); details: LYMP1-002 lymphoblastoid cell viability; at 92.2 µM (top of the series);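 further: 0% = DMSO only and full inhibition = 92 µM tetraoctylammonium bromide; nearly all actives have a fitted effect of over 60% in size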
In short: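 Concentration-dependent ATP loss after 40 hr treatment at 37 C defined toxicity; AC50 values were obtained by fitting the standard Hill equation.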

[9] = qHTS Assay for Identification of Small Molecule Inducers of Hypoxia Response (AID 2120; active means well fitted curve in the direction sought with a large enough effect in the signal ratio, with a control signal flat, not every such curve was filed as active; the % refers to the signal ratio; further: 0% is about no effect); details: hypoxia response reporter cells, beta-lactamase ratio readout; at 104 µM (top of the series)
In short: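 HRE-bla ME-180, 2500 cells/well, 0.5% dialyzed FBS medium; cpd titration, 17 h 37 degrees C; CCF4 2.5 h RT; Ex 405, Em 460/530 ratio -> %Activity, AC50.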

[10] = biological target: Androgen receptor (Homo sapiens) (UniProt P10275); test: qHTS assay for small molecule agonists of androgen receptor signaling (AID 588515; active means well fitted curve in the direction sought with a large enough effect in the signal ratio, with a control signal flat; the % refers to the signal ratio; further: on the % scale 0 is the no-effect control and ±100 the full control effect); details: AR-UAS-bla HEK293, beta-lactamase ratio, agonist 16 h; stronger effect = higher value
[11] = biological target: Bile acid receptor (Homo sapiens) (UniProt Q96RI1); test: qHTS assay for small molecule agonists of farnesoid X receptor signaling (AID 588527; calls by dose curve;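 further: 0% = vehicle basal and 100% = reference agonist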); details: HEK293T FXR-UAS-bla, beta-lactamase ratio, 16 h; stronger effect = higher value
[12] = biological target: Glucocorticoid receptor (Homo sapiens) (UniProt P04150); test: qHTS assay for small molecule agonists of glucocorticoid receptor signaling (AID 588532; active means well fitted curve in the direction sought with a large enough effect in the signal ratio, with a control signal flat; the % refers to the signal ratio;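 further: 100% = dexamethasone at 0.1 µM and 0% = DMSO only wells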); details: HeLa MMTV-bla, beta-lactamase ratio, agonist, 18 h; stronger effect = higher value
[13] = biological target: Peroxisome proliferator-activated receptor delta (Homo sapiens) (UniProt Q03181); test: qHTS assay for small molecule antagonists of peroxisome proliferator-activated receptor delta signaling (AID 588535; active means well fitted inhibition curve with a large enough effect in the signal ratio, with a control signal flat, not every such curve was filed as active; the % refers to the signal ratio); details: HEK293T PPARd-UAS-bla, beta-lactamase FRET ratio, 18 h; at 76.7 µM (top of the series)
[14] = biological target: Peroxisome proliferator-activated receptor gamma (Homo sapiens) (UniProt P37231); test: qHTS assay for small molecule agonists of peroxisome proliferator-activated receptor gamma signaling (AID 588536; active means well fitted curve in the direction sought with a large enough effect in the signal ratio, with a control signal flat, not every such curve was filed as active; the % refers to the signal ratio;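 further: 0% = DMSO basal wells and 100% = rosiglitazone at 2 µM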); details: HEK293 PPARg-UAS-bla, beta-lactamase ratio, 16 h, percent of rosiglitazone response, DMSO as zero; at 76.7 µM (top of the series)
[15] = biological target: Vitamin D3 receptor (Homo sapiens) (UniProt P11473); test: qHTS assay for small molecule antagonists of vitamin D receptor signaling (AID 588541; calls by dose curve;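 further: receptor activated by calcitriol during compound treatment; on the % scale 0 is the no-effect control and ±100 the full control effect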); details: HEK293T VDR-UAS-bla, beta-lactamase ratio, antagonist mode; at 76.7 µM (top of the series)
In short: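 Antagonist-mode beta-lactamase reporter assay: HEK293T VDR-UAS-bla cells were exposed to titrated compound alongside 1-alpha,25-dihydroxyvitamin D3 at 3 nM final for 16 h. Values were normalized to the 50 nM agonist control and DMSO basal, with IC50 and efficacy from Hill equation fits.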

[16] = biological target: Vitamin D3 receptor (Homo sapiens) (UniProt P11473); test: qHTS assay for small molecule agonists of vitamin D receptor signaling (AID 588543; calls by dose curve;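 further: 0% = DMSO basal and 100% = reference agonist control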); details: HEK293T VDR-UAS-bla, beta-lactamase ratio, 16 h; at 76.8 µM (top of the series)
In short: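 Agonist-mode beta-lactamase reporter: HEK293T VDR-UAS-bla cells in charcoal-stripped 2% FBS, compound series 16 h 37 C, CCF4 2 h RT. EC50 from Hill fit, scaled against DMSO and 50 nM calcitriol control.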

[17] = biological target: Retinoic acid receptor RXR-alpha (Homo sapiens) (UniProt P19793); test: qHTS assay for small molecule agonists of retinoid X receptor alpha signaling (AID 588544; calls by dose curve;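 further: 0% = DMSO basal wells and 100% = reference agonist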); details: HEK293T RXRa-UAS-bla, beta-lactamase reporter, 18 h; at 76.7 µM (top of the series)
[18] = biological target: Retinoic acid receptor RXR-alpha (Homo sapiens) (UniProt P19793); test: qHTS assay for small molecule antagonists of retinoid X receptor alpha signaling (AID 588546; active means well fitted inhibition curve with a large enough effect in the signal ratio, with a control signal flat, not every such curve was filed as active; the % refers to the signal ratio;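 further: cells stimulated with 9-cis-retinoic acid as agonist; on the % scale 0 is the no-effect control and ±100 the full control effect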); details: HEK293T RXRa-UAS-bla, beta-lactamase ratio, antagonist mode
In short: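 Beta-lactamase reporter inhibition, read as CCF4 fluorescence ratio (ex 405, em 460/530 nm) after 2 h at RT. HEK293T UAS-bla cells, 2500/well, were stimulated with 9-cis-RA at 500 or 100 nM final alongside test compound for 18 h at 37 C.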

[19] = biological target: Thyroid hormone receptor beta (Homo sapiens) (UniProt P10828); test: qHTS assay for small molecule antagonists of thyroid hormone receptor beta signaling (AID 588547; active means well fitted inhibition curve with a large enough effect in the signal ratio, with a control signal flat, not every such curve was filed as active; the % refers to the signal ratio); details: TR-UAS-bla HEK293, beta-lactamase ratio, antagonist mode, 18 h; stronger effect = lower value
In short: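 Inhibition of T3-driven (0.4nM final) beta-lactamase reporter activity was measured over 0.59 nM to 92 uM compound after 18 h at 37 C. The cells were GripTite HEK293 TR-UAS-bla in charcoal/dextran-stripped serum, with CCF4 ratio read-out and IC50 from Hill fits.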

[20] = biological target: Voltage-gated inwardly rectifying potassium channel KCNH2 (Homo sapiens) (UniProt Q12809); test: qHTS Assay for Small Molecule Inhibitors of the Human hERG Channel Activity (AID 588834); details: U2OS BacMam hERG, FluxOR thallium flux fluorescence; at 46.1 µM (top of the series) unless noted;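 further: U2OS cells transduced with hERG by BacMam; top concentration of the series differs between compounds; on the % scale 0 is the no-effect control and ±100 the full control effect; lower thallium flux fluorescence means stronger hERG block; nearly all actives have a fitted effect of over 50% in size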
[21] = biological target: Luciferin 4-monooxygenase (Photinus pyralis) (UniProt P08659); test: Biochemical firefly luciferase enzyme assay for NPC (AID 624030);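 further: purified P. pyralis luciferase at 10 nM with luciferin and ATP substrate; 0% = DMSO and -100% = full luciferase inhibition by PTC124 control; nearly all actives have a fitted effect of over 70% in size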; details: purified P. pyralis luciferase, luminescence, 5 min; at 58.6 µM (top of the series) unless noted
In short: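 Direct inhibition of firefly luciferase enzyme (10 nM final, 50 mM Tris Acetate) assessed by luminescence within 5 minutes. Percent activity scaled between DMSO and PTC124 positive control, with concentration-effect curves classified by fit quality and response.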

[22] = qHTS assay for small molecule activators of the p53 signaling pathway (AID 651743; active means well fitted activation curve with a large enough effect in the signal ratio, not every such curve was filed as active; the % refers to the signal ratio; further: % of control where 0% means no effect); details: HCT-116 p53RE-bla, beta-lactamase FRET ratio, 16 h; activation: stronger effect = higher value
[23] = qHTS assay for small molecule activators of the nuclear factor-kappa B (NF-kB) signaling pathway (AID 651749; active means well fitted activation curve with a large enough effect in the signal ratio; the % refers to the signal ratio; further: % of control where 0% means no effect); details: NF-kB-bla ME-180 cells, beta-lactamase FRET ratio, 16 h; stronger effect = higher value
In short: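 FRET-based beta-lactamase detection in ME-180 cells reports NF-kB response-element-driven transcription following overnight (16 hr) compound treatment.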

[24] = qHTS assay for small molecule disruptors of the mitochondrial membrane potential - 1 hr assay (AID 651754; calls by dose curve; further: potency means the concentration at half of the fitted maximal effect; nearly all actives have a fitted effect of over 35% in size); details: HepG2 mitochondrial membrane potential, JC-1 ratio 590/535, 1 h
In short: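 In this qHTS format, a 1 hr compound treatment of HepG2 cells precedes Mito-MPS staining, and membrane potential is judged from aggregate (red) against monomer (green) fluorescence intensity.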

[25] = qHTS assay for small molecule disruptors of the mitochondrial membrane potential - 5 hr assay (AID 651755; calls by dose curve; further: potency means the concentration at half of the fitted maximal effect; nearly all actives have a fitted effect of over 40% in size); details: JC-1-type ratio dye
[26] = qHTS assay to identify small molecules that stimulate interleukin-8 (IL-8) secretion (AID 651758; active means well fitted activation curve with a large enough effect in the signal ratio; the % refers to the signal ratio; further: potency means the concentration at half of the fitted maximal effect); details: HTRF ratio (665/615)
[27] = qHTS assay for environmental chemicals that activate the Aryl hydrocarbon Receptor (AhR) signaling pathway (AID 651777); details: 1A2-DRE human hepatoma cells, luciferase, 24 h; stronger effect = higher value; further: % of control where 0% means no effect; nearly all actives have a fitted effect of over 15% in size
In short: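 Concentration–response screening used 1,200 1A2-DRE cells per well, 24 hr compound exposure (37 C, 5% CO2), and One-Glo luminescence as the AhR-driven CYP1A2 reporter signal.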

[28] = biological target: Peroxisome proliferator-activated receptor alpha (Homo sapiens) (UniProt Q07869); test: qHTS assay for small molecule agonists of the peroxisome proliferator-activated receptor alpha (PPARalpha) signaling pathway (AID 651778); details: PathHunter PPARalpha complementation, chemiluminescence, 6 h; stronger effect = higher value; further: % of control where 0% means no effect
[29] = qHTS assay for small molecule agonists of the antioxidant response element (ARE) signaling pathway measured by Nrf2-dependant transcriptional activity (AID 720636; active means well fitted curve in the direction sought with a large enough effect in the repeat runs; an effect the other way counts as inactive or inconclusive;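 further: HepG2 cells with an ARE-driven luciferase reporter; % of control where 0% means no effect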); details: ARE-luc HepG2, Nrf2 luciferase reporter, 16 h; at 92.4 µM (top of the series)
[30] = qHTS assay for small molecule agonists of the antioxidant response element (ARE) signaling pathway measured by Nrf2-dependant transcriptional activity - cell viability counter screen (AID 720653; active means well fitted curve in the direction sought with a large enough effect in the repeat runs; an effect the other way counts as inactive or inconclusive; further: on the % scale 0 is the no-effect control and ±100 the full control effect); details: ARE-bla HepG2 viability, CellTiter-Glo ATP luminescence, 16 h; stronger effect = lower value
In short: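 Cytotoxicity counter screen: intracellular ATP quantified by CellTiter-Glo luminescence in the same ARE-bla HepG2 plates, after 16 h compound exposure and a 2 h beta-lactamase substrate step.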

Cc1cc([N+](=O)[O-])cc([N+](=O)[O-])c1O
active: Potency [24] 42.2 µM | Potency [25] 66.8 µM | Potency [26] 66.8 µM
inactive: activity change, negative = cytotoxicity [1] -16.5% | activity change, negative = cytotoxic [2] 3.82% | activity change, negative = cytotoxicity [3] -11.4% | activity change, negative = cytotoxicity [4] -0.972% | activity change, negative = cytotoxicity [5] -15.3% | activity change, negative = cytotoxic [6] -10.9% | activity change, negative = cytotoxicity [7] -10.5% | viability change, negative = cytotoxic [8] -26.6% | activation [9] 1.81% | activation [10] -2.59% | activation [11] 1.32% | activation [12] -2.59% and -13.1% | activity change, negative = inhibition [13] -9.44% | activation [14] -9.59% | activity change, negative = inhibition [15] 13.3% | activation [16] -0.188% and -4.65% | activation [17] -8.04% and -26.3% | max response [18] -3.13% and -46.3% | inhibition [19] -13.4% | activity change, negative = inhibition [20] 10.7% [at 92.2 µM] | activity change, negative = inhibition [21] -9.74% [at 123 µM] | activation [22] 28.4% | activation [23] -2.06% and 0.289% | activation [27] 0.565% and 0.551% | max response [28] -12.1% and -6.84% | activation [29] -0.831% and -0.322% | max response [30] -16.1%
